According to paper PMC7051184, “C9orf72 arginine-rich dipeptide repeat proteins disrupt karyopherin-mediated nuclear import” (eLife, 2020):

Key:
[1] = tested on: importin β; test: Bead halo assay, biotinylated importin β on neutravidin beads; type: binding, human; conditions: AF488-labeled; 1 mg/ml neuronal lysate added
Protocol: To prepare biotinylated WT importin β-Avitag (pKW1982, pK1099), BL21DE3 cells (New England Biolabs, Ipswich, MA) were co-transfected with the respective plasmids together with pAC-biotin ligase (Avidity), followed by plating and growth in LB media containing ampicillin and chloramphenicol. After the 37°C cultures reached OD600nm + 0.4–0.6, the cultures were cooled to room temperature, supplemented with 100 µM D-biotin, and the expression was induced with 0.3 mM IPTG at room temperature for 8–11 hr (pKW762). Proteins were purified on Ni-NTA resin as described for the non-biotinylated importin β fragments.
The bead halo assay was carried out as described with minor modifications ([Patel and Rexach, 2008]), using […] polystyrene beads coated with neutravidin (for biotinylated proteins) or glutathione (for GST-fusion proteins) (Spherotech, Lake Forest, IL). Beads were coated overnight at 4°C at saturating concentrations per manufacturers’ instructions and rinsed 2x in binding buffer (20 mM HEPES [pH 7.4], 150 mM KOAc, 2 mM Mg(OAc)2, 1 mM DTT, 0.1% Tween-20). Immediately prior to the assay, fluorescent bait proteins and beads were combined with 4x assay buffer (40 mM EDTA, 40 mg/ml BSA, 500 mM NaCl, and 0.2% Tween) to a total of 40 µL per well, in optical glass-bottom 96-well plates (Cellvis, Mountain View, CA). […]

[2] = Bead halo assay, bare neutravidin beads (non-specific control); conditions: AF488-labeled, 200 nM, binding buffer
Protocol: The bead halo assay was carried out as described with minor modifications ([Patel and Rexach, 2008]), using […] polystyrene beads coated with neutravidin (for biotinylated proteins) or glutathione (for GST-fusion proteins) (Spherotech, Lake Forest, IL). Beads were coated overnight at 4°C at saturating concentrations per manufacturers’ instructions and rinsed 2x in binding buffer (20 mM HEPES [pH 7.4], 150 mM KOAc, 2 mM Mg(OAc)2, 1 mM DTT, 0.1% Tween-20). Immediately prior to the assay, fluorescent bait proteins and beads were combined with 4x assay buffer (40 mM EDTA, 40 mg/ml BSA, 500 mM NaCl, and 0.2% Tween) to a total of 40 µL per well, in optical glass-bottom 96-well plates (Cellvis, Mountain View, CA). Reactions were allowed to equilibrate at room temperature for a minimum of 30 min prior to imaging at 100x on an LSM800 confocal microscope (Zeiss, Oberkochen, Germany). Intensity profiles comparing the maximum rim intensity to the background were plotted in ImageJ (NIH) by an investigator blinded to experimental conditions.

[3] = tested on: importin β; test: Biochemical pulldown (GFP-Trap) for DPR-induced Rango-importin β dissociation; type: binding, human; conditions: increasing concentrations of DPRs
Protocol: GFP-Trap magnetic beads (Chromotek, Planegg-Martinsried, Germany) were washed and resuspended in TTBS. At the end of incubation, 8 µl bead suspension was added to each sample and mixed by rotation for 15 min. The supernatant was removed and beads washed 3 times with TTBS before boiling in 20 µl SDS-PAGE sample buffer with 2% β-mercaptoethanol. Samples were separated by SDS-PAGE and anti-GFP western blot performed as detailed below to detect Rango. After detecting the ECL signal, membranes were stained with Coomassie Brilliant R250 to detect importin β. Background-subtracted signals were determined by Image Lab 6.01 (BioRad) and the Rango ECL signal normalized to the importin β signal within each lane.
Supernatant and pellet fractions (for all 5 DPRs, and control/buffer only) were prepared as in the nuclear transport assays, by adding 100 µM 10mers to 2.5 mg/ml HEK lysate in 100 µL TRB. Supernatants were boiled in Laemmli (BioRad) for 5 min. Pellets were boiled for 15 min followed by sonication in order to fully disperse aggregates for SDS-PAGE. […] Protein loading was analyzed by BLOT-Faststain (G-biosciences, St. Louis, MO), according to the manufacterers’ instructions. […] Band intensities were measured by ImageQuant software. For pellet vs. supernatant fractions, all were expressed as percent untreated control. […]

[4] = tested on: Nup98; test: DPR aggregation assay and western blot, Nup98; type: biochemical, human; conditions: 100 µM 10mer in 2.5 mg/ml HEK lysate, normalized to untreated HEK
Protocol: (§1) Supernatant and pellet fractions (for all 5 DPRs, and control/buffer only) were prepared as in the nuclear transport assays, by adding 100 µM 10mers to 2.5 mg/ml HEK lysate in 100 µL TRB. Supernatants were boiled in Laemmli (BioRad) for 5 min. Pellets were boiled for 15 min followed by sonication in order to fully disperse aggregates for SDS-PAGE. Equal volumes of supernatant and pellet fractions were run on 4–12% Bolt Bis-Tris Plus gels (ThermoFisher), transferred to nitrocellulose membrane using an iBlot2 dry blotting system (ThermoFisher). Protein loading was analyzed by BLOT-Faststain (G-biosciences, St. Louis, MO), according to the manufacterers’ instructions. For immunodetection, membranes were blocked with 5% non-fat milk in TBST and probed by sequential incubation with the primary antibodies as detailed in the table below. Detection was by HRP-conjugated secondary antibodies/chemiluminescence using an ImageQuant LAS 4000 system (GE, Chicago, IL). To permit sequential probing of membranes without stripping, signals were quenched by incubation with prewarmed 30% H20_2 for 20 min ([Sennepin et al., 2009]). Band intensities were measured by ImageQuant software. For pellet vs. supernatant fractions, all were expressed as percent untreated control. For blots in Figure 1E, samples were run on 4–20% SDS PAGE minigels (ThermoFisher) and blotted to PVDF membranes (Immun-Blot PVDF, Bio-Rad) using the Bio-Rad TransBlot Turbo apparatus, and probed as above. The chemiluminescence signal was captured with a Bio-Rad ChemiDoc XRS+ digital imaging system.

[5] = tested on: TDP-43; test: DPR aggregation assay and western blot, TDP-43; type: biochemical, human; conditions: normalized to untreated HEK cells on the same membrane
Protocol: as §1

[6] = tested on: Rps25; test: DPR aggregation assay and western blot, Rps25; type: biochemical, human; conditions: Fig 5-suppl 3C, normalized to untreated HEK on same membrane;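 also: RNA rows contain added 20 µg total HEK RNA while no-RNA rows lack it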
Text: Supplement elife-51685-fig5-data1.xlsx, sheet "Figure 5-figure suppl 3" | column: Rps25

[7] = tested on: RCC1; test: DPR aggregation assay and western blot, RCC1 (negative control); type: biochemical, human; conditions: 100 µM 10mer in 2.5 mg/ml HEK lysate, normalized to untreated HEK
Protocol: as §1

[8] = DPR aggregate formation in HEK lysate (pellet vs. supernatant, total protein); type: biochemical, human; conditions: 100 µM
Protocol: as §1, with “For blots in Figure 1E, samples were run on 4–20% SDS PAGE minigels (ThermoFisher) and blotted to PVDF membranes (Immun-Blot PVDF, Bio-Rad) using the Bio-Rad TransBlot Turbo apparatus, and probed as above. The chemiluminescence signal was captured with a Bio-Rad ChemiDoc XRS+ digital imaging system.” left out

[9] = tested on: importin β; test: DPR aggregation assay and western blot, ImpB; type: biochemical, human; conditions: for ImpB band density, Pellet / ImpB band density, Supernatant: 100 µM 10mer in 2.5 mg/ml HEK lysate, normalized to untreated HEK; for ImpB band density, % untr control: Fig 5-suppl 3C, normalized to untreated HEK on same membrane;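 as to ImpB band density, % untr control: RNA rows contain added 20 µg total HEK RNA while no-RNA rows lack it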
Protocol: as §1

[10] = Pellet, no RNA (Untreated), blot 1
[11] = Pellet, no RNA (Untreated), blot 2
[12] = Supernatant, no RNA (Untreated), blot 1
[13] = Supernatant, no RNA (Untreated), blot 2

## N=C(N)NCCC[C@H](NC(=O)CNC(=O)[C@H](CCCNC(=N)N)NC(=O)CNC(=O)[C@H](CCCNC(=N)N)NC(=O)CNC(=O)[C@H](CCCNC(=N)N)NC(=O)CNC(=O)[C@H](CCCNC(=N)N)NC(=O)CNC(=O)[C@H](CCCNC(=N)N)NC(=O)CNC(=O)[C@H](CCCNC(=N)N)NC(=O)CNC(=O)[C@H](CCCNC(=N)N)NC(=O)CNC(=O)[C@H](CCCNC(=N)N)NC(=O)CNC(=O)[C@H](CCCNC(=N)N)NC(=O)CN)C(=O)O [GR10]
[1]
  Binding to importin β-coated beads: all binding between GR10 and the beads, including importin β, was lost
[2]
  Binding to bare beads: modest non-specific binding
[3]
  Displacement of importin β from Rango (GFP nanobody bead co-immunoprecipitation): dose-dependent displacement of importin β from the sensor
[4]; Blot 1
  Nup98 band density, Pellet: 119.0 % control
  Nup98 band density, Supernatant: 59.8 % control
[4]; Blot 2
  Nup98 band density, Pellet: 141.6 % control
  Nup98 band density, Supernatant: 58.7 % control
[5]; Pellet, Blot 1
  TDP43 band density, % control: 671.3 % control
[5]; Pellet, Blot 2
  TDP43 band density, % control: 218.4 % control
[5]; Supernatant, Blot 1
  TDP43 band density, % control: 72.6 % control
[5]; Supernatant, Blot 2
  TDP43 band density, % control: 58.6 % control
[6]; Pellet, RNA, blot 1
  Rps25 band density, % untr control: 295.74%
[6]; Pellet, RNA, blot 2
  Rps25 band density, % untr control: 495.87%
[6]; [10]
  Rps25 band density, % untr control: 288.08%
[6]; [11]
  Rps25 band density, % untr control: 470.22%
[6]; Supernatant, RNA, blot 1
  Rps25 band density, % untr control: 7.73%
[6]; Supernatant, RNA, blot 2
  Rps25 band density, % untr control: 9.04%
[6]; [12]
  Rps25 band density, % untr control: 1.64%
[6]; [13]
  Rps25 band density, % untr control: 0.96%
[7]; Blot 1
  RCC1 band density, Pellet: 44.8 % control
  RCC1 band density, Supernatant: 103.4 % control
[7]; Blot 2
  RCC1 band density, Pellet: 154.7 % control
  RCC1 band density, Supernatant: 123.6 % control
[8]
  Depletion of NCT proteins from the supernatant: not substantially depleted from the supernatant
[9]; Blot 1
  ImpB band density, Pellet: 1064.8 % control
  ImpB band density, Supernatant: 83.0 % control
[9]; Blot 2
  ImpB band density, Pellet: 423.8 % control
  ImpB band density, Supernatant: 93.2 % control
[9]; Pellet, RNA, blot 1
  ImpB band density, % untr control: 163.77%
[9]; Pellet, RNA, blot 2
  ImpB band density, % untr control: 188.99%
[9]; [10]
  ImpB band density, % untr control: 245.89%
[9]; [11]
  ImpB band density, % untr control: 364.35%
[9]; Supernatant, RNA, blot 1
  ImpB band density, % untr control: 93.15%
[9]; Supernatant, RNA, blot 2
  ImpB band density, % untr control: 131.87%
[9]; [12]
  ImpB band density, % untr control: 98.63%
[9]; [13]
  ImpB band density, % untr control: 118.94%
